The results in this text go back to PMC6364417, “Kinase inhibitor library screening identifies synergistic drug combinations effective in sensitive and resistant melanoma cells” (Journal of Experimental & Clinical Cancer Research : CR, 2019).

What all share (assay): Kinase inhibitor library screening, PrestoBlue cell viability, 1 or 10 μM, 72 h
One data set concerns 501Mel cells (parental). To be noted: for cell viability (kinase inhibitor library screening): 501Mel Parental.
Another data set concerns A375 cells (parental).
Data set [1] has as its system A375-GP cells (Dabrafenib-resistant). To be noted: for cell viability, A375 GP, 1μΜ: in %.
In data set [2] the test system is A375-XP cells (Vemurafenib-resistant).
Data set [3] deals with 501Mel-GP cells (Dabrafenib-resistant). To be noted: 1μΜ.
The subject of data set [4] is IGR37-GP cells (Dabrafenib-resistant).
The next data set deals with IGR37 cells (parental).
Data set [5] concerns IGR37-XP cells (Vemurafenib-resistant). To be noted: for cell viability (kinase inhibitor library screening): 1μΜ.
The subject of data set [6] is 501Mel-XP cells (Vemurafenib-resistant). To be noted: 1μΜ.

`Nc1nc(Nc2ccc(S(N)(=O)=O)cc2)nn1C(=O)c1c(F)cccc1F` [JNJ-7706621]: the “cell viability (kinase inhibitor library screening)” value in the data set with 501Mel cells (parental) (1μΜ) was found to be 102.2%.

In the case of `CCn1c(-c2nonc2N)nc2c(C#CC(C)(C)O)ncc(OC[C@H]3CCCNC3)c21` [GSK690693], the “cell viability (kinase inhibitor library screening)” value in the data set on A375 cells (parental) (1μΜ) is 101.2%.

As for `CCc1cc2c(cc1N1CCC(N3CCOCC3)CC1)C(C)(C)c1[nH]c3cc(C#N)ccc3c1C2=O` [CH5424802], in data set [1] (1μΜ), the “cell viability (kinase inhibitor library screening)” value was determined as 101.0%.

Turning to `CCOc1ccn(-c2ccc(F)cc2)c(=O)c1C(=O)Nc1ccc(Oc2ccnc(N)c2Cl)c(F)c1` [BMS 777607], the results for the “cell viability (kinase inhibitor library screening)” value in data set [2] (1μΜ), in data set [1] (1μΜ) and in data set [3] were 102.5%, 100.8% and 81.3%, respectively.

For AZD4547, the “cell viability, A375 GP, 1μΜ” value in [1] (1μΜ) was found to be 97.7.

As for `N#Cc1c(O)c2c(-c3ccc(-c4ccccc4O)cc3)csc2[nH]c1=O` [A-769662], the “cell viability (kinase inhibitor library screening)” value in data set [2] (10μΜ) is 101.5%; in data set [1] (1μΜ), 101.2%; in [4] (1μΜ) it was 101.3%; in [3] it was 102.4%.

On to `C[C@@H]1CN(CC(=O)Nc2ccc3c(c2)Cc2cccc(-c4cc(=O)cc(N5CCOCC5)o4)c2S3)C[C@H](C)O1` [KU-60019], for which the “cell viability (kinase inhibitor library screening)” value in [2] (1μΜ) came out at 102.4%; in the data set with IGR37 cells (parental) (1μΜ) it was 98.7%; with A375 cells (parental) (1μΜ), 100.6%; in data set [5] it was 102.5%; in data set [4] (10μΜ) it was 72.5%.

On to `Cc1csc(-c2nnc(Nc3ccc(Oc4ncccc4-c4ccnc(N)n4)cc3)c3ccccc23)c1` [AMG 900], for which the “cell viability (kinase inhibitor library screening)” value in data set [4] (1μΜ) was determined as 100.6%.

On to `COCCNCc1ccc(-c2cc3nccc(Oc4ccc(NC(=S)NC(=O)Cc5ccc(F)cc5)cc4F)c3s2)nc1` [MGCD-265], for which the “cell viability (kinase inhibitor library screening)” value in the data set on A375 cells (parental) (1μΜ) was found to be 102.5%.

With `Cc1cnc(NC(=O)Nc2cc(Br)c(C)cc2OC[C@@H]2CNCCO2)cn1` [LY2603618 (IC-83)], the “cell viability (kinase inhibitor library screening)” value in data set [1] (1μΜ) is 72.5%.

On to `O=c1cc(-c2cccc3c2Sc2ccccc2S3)oc(N2CCOCC2)c1` [KU-55933], for which the “cell viability (kinase inhibitor library screening)” value with 501Mel cells (parental) (1μΜ) was determined as 101.2%.

Turning to `CCCCCCCCCCCCc1ccc(S(=O)(=O)Nc2nncs2)cc1` [PHT-427], the “cell viability (kinase inhibitor library screening)” value with IGR37 cells (parental) (1μΜ) was determined as 102.0%; in data set [6] it was 98.7%; in the data set on A375 cells (parental) (1μΜ) it was 102.3%; in data set [5] it was 101.3%.

In the case of `Cn1cc(-c2ccc3nnc(Sc4ccc5ncccc5c4)n3n2)cn1` [SGX-523], the results for the “cell viability (kinase inhibitor library screening)” value in data set [2] (1μΜ) and in data set [2] (10μΜ) were 101.5% and 102.2%, respectively.

Take `Cn1cc(-c2ccc3nnc(C(F)(F)c4ccc5ncccc5c4)n3n2)cn1` [JNJ-38877605]: the “cell viability (kinase inhibitor library screening)” value in [1] (1μΜ) is on record as 100.6%.

As for `OCCn1cc(-c2cnc3nnn(Cc4ccc5ncccc5c4)c3n2)cn1` [PF-04217903], the “cell viability (kinase inhibitor library screening)” value in the data set with A375 cells (parental) (10μΜ) was 102.0%; in data set [5], 100.8%; in data set [1] (1μΜ), 101.6%; in [1] (10μΜ), 101.9%.

In the case of `CNC(=O)c1cc(Oc2ccc(NC(=O)Nc3cc(C(C)(C)C)nn3-c3ccc4ncccc4c3)c(F)c2)ccn1` [DCC-2036 (Rebastinib)], the “cell viability (kinase inhibitor library screening)” value in data set [4] (1μΜ) is on record as 101.4%.

Turning to `CC(C)NC[C@@H](C(=O)N1CCN(c2ncnc3c2[C@H](C)C[C@H]3O)CC1)c1ccc(Cl)cc1` [GDC-0068], the “cell viability (kinase inhibitor library screening)” value in [2] (1μΜ) came to 100.9%; in data set [1] (1μΜ) it was 100.6%.

As to `COc1cc(N2CCC(N3CCN(C)CC3)CC2)ccc1Nc1ncc(Cl)c(Nc2ccccc2S(=O)(=O)C(C)C)n1` [TAE684 (NVP-TAE684)], the “cell viability (kinase inhibitor library screening)” value in data set [6] is reported as 101.8%.

Regarding `CC(C)CC(=O)Nc1[nH]nc2c1CN(C(=O)C1CCN(C)CC1)C2(C)C` [PHA-793887, reference compound], the “cell viability (kinase inhibitor library screening)” value in data set [3] is recorded as 102.0%.

With `Nc1nccc(Oc2ccc(NC(=O)c3c[nH]cc(-c4ccc(F)cc4)c3=O)cc2F)c1Cl` [BMS 794833], the figures for the “cell viability (kinase inhibitor library screening)” value (with A375 cells (parental) (1μΜ); in data set [1] (1μΜ)) were 102.1% and 101.3%, respectively.

On to MK-2206 dihydrochloride, for which the “cell viability (kinase inhibitor library screening)” value is 103.1% in the data set on IGR37 cells (parental) (1μΜ) and 101.2% with A375 cells (parental) (1μΜ).

`Cc1cc(CN2CCN(c3c(Br)cnc4nc(-c5ccc(N6CCN(C)CC6)cc5)[nH]c34)CC2)no1` [CCT137690]: the “cell viability (kinase inhibitor library screening)” value in data set [2] (1μΜ) stood at 62.3%.

`CC(=O)c1c(C)c2cnc(Nc3ccc(N4CCNCC4)cn3)nc2n(C2CCCC2)c1=O.Cl` [PD 0332991 (Palbociclib) HCl]: the “cell viability (kinase inhibitor library screening)” value in the data set with IGR37 cells (parental) (10μΜ) is on record as 72.5%; in data set [4] (1μΜ), 102.5%.

For `CS(=O)(=O)CCNCc1ccc(-c2ccc3ncnc(Nc4ccc(OCc5cccc(F)c5)c(Cl)c4)c3c2)o1.Cc1ccc(S(=O)(=O)O)cc1.Cc1ccc(S(=O)(=O)O)cc1` [Lapatinib Ditosylate (Tykerb)], the “cell viability, IGR37 Parental, 1μΜ” value in the data set on IGR37 cells (parental) (1μΜ, in %) was found to be 99.4. Further, in data set [5] (in %), the “cell viability, IGR37 XP, 1μΜ” value was determined as 94.9. In data set [1] (1μΜ), the “cell viability, A375 GP, 1μΜ” value came to 108.6. Also, in [4] (1μΜ, in %), the “cell viability, IGR37 GP, 1μΜ” value stood at 100.0. Also, the “cell viability, 501Mel Parental, 1μΜ” value with 501Mel cells (parental) (1μΜ, in %) amounted to 103.1.

Regarding `CN(C)c1ccc(-c2nc3ncc(Cl)c(N4CCN(CC(=O)Nc5nccs5)CC4)c3[nH]2)cc1` [CCT129202], the “cell viability (kinase inhibitor library screening)” value with A375 cells (parental) (1μΜ) amounted to 102.2%.

Take `Cc1cc(Nc2cc(N3CCN(C)CC3)nc(Sc3ccc(NC(=O)C4CC4)cc3)n2)n[nH]1` [VX-680 (MK-0457, Tozasertib)]: the “cell viability (kinase inhibitor library screening)” value in [5] came out at 97.5%.

With `CC(C)c1cnn2c(NCc3ccccc3)cc(NCCCCCCN)nc12.Cl` [BS-181 HCl], the “cell viability (kinase inhibitor library screening)” value in the data set with IGR37 cells (parental) (10μΜ) is on record as 101.3%; with A375 cells (parental) (1μΜ), 101.1%.

On to `Cc1[nH]c(/C=C2\C(=O)Nc3ccc(S(=O)(=O)Cc4c(Cl)cccc4Cl)cc32)c(C)c1C(=O)N1CCC[C@@H]1CN1CCCC1` [PHA-665752], for which the “cell viability (kinase inhibitor library screening)” value in data set [5] was found to be 101.4%.

Regarding `CN(C[C@@H]1COCCO1)S(=O)(=O)Nc1ccc2ccc3ncc(-c4cnn(C)c4)cc3c(=O)c2c1` [MK-2461], the “cell viability (kinase inhibitor library screening)” value is recorded as 101.3% in data set [1] (1μΜ) and 102.4% in [4] (1μΜ).

On to `CCn1cc(-c2ccnc3[nH]c(-c4cccc(CN(C)C)c4)cc23)c(-c2ccc(NC(=O)N(C)C)cc2)n1` [GSK1070916], for which, in data set [3], the “cell viability (kinase inhibitor library screening)” value is listed as 100.7%.

As for `S=C(NCc1ccc2c(c1)OCO2)N1CCN(c2ncnc3c2oc2ccccc23)CC1` [Amuvatinib (MP-470)], in data set [5], the “cell viability (kinase inhibitor library screening)” value is listed as 97.5%.

`Cc1ccc(NC(=O)c2ccc(CN3CCN(C)CC3)cc2)cc1Nc1nc(-c2cccnc2)cs1` [Masitinib (AB1010)]: the “cell viability (kinase inhibitor library screening)” value in the data set with A375 cells (parental) (1μΜ) was found to be 102.3%; in [4] (1μΜ), 98.7%; in the data set on 501Mel cells (parental) (1μΜ) it was 101.8%.

With `COc1ccc2c(Oc3ccc(NC(=O)c4c(C)n(CC(C)(C)O)n(-c5ccccc5)c4=O)nc3)ccnc2c1` [AMG458], the “cell viability (kinase inhibitor library screening)” value with IGR37 cells (parental) (10μΜ) is listed as 102.4%; in [6] it was 101.0%; in the data set with 501Mel cells (parental) (1μΜ), 101.3%; in the data set with 501Mel cells (parental) (10μΜ), 101.3%.

As for `O=C(O)[C@]1(Cc2cccc(Nc3nccs3)n2)CC[C@@H](Oc2cccc(Cl)c2F)CC1` [MK-5108 (VX-689)], the “cell viability (kinase inhibitor library screening)” value in data set [4] (1μΜ) came to 102.5%.

On to `CNC(=O)c1ccc(-c2cnc3ncc(Cc4ccc5ncccc5c4)n3n2)cc1F` [INCB28060], for which the “cell viability (kinase inhibitor library screening)” value in the data set on A375 cells (parental) (10μΜ) was 102.1%.
